# Reference: article PMC11558128 (Advanced Science, 2024)
# Target: T1, rKv4.2 (Rattus norvegicus, UniProt Q63881)
# T1 construct: expressed in transfected cells; host or cells: HEK293T
# T1 sequence (Q63881 1-630): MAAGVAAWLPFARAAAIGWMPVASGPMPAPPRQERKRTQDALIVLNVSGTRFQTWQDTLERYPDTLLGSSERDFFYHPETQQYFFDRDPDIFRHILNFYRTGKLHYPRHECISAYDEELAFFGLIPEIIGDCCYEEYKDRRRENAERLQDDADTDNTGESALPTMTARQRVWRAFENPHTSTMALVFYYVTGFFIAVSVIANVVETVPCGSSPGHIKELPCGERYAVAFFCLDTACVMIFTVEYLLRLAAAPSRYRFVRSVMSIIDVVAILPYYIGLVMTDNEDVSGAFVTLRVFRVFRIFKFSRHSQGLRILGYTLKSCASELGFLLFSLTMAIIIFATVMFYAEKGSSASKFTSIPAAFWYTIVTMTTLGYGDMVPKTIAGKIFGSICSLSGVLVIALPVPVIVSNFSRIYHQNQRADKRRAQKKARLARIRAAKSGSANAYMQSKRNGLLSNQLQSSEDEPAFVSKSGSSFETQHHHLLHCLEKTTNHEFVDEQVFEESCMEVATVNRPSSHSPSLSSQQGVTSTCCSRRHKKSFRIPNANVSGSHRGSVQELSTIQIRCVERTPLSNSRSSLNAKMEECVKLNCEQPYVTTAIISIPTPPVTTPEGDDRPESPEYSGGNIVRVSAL
# Experiment: cell-based
# Settings: SEM
row,SMILES,IC50 [nM]
1,CC(C)C[C@H](NC(=O)[C@H](Cc1ccc(O)cc1)NC(=O)[C@@H](NC(=O)[C@H](CCCCN)NC(=O)[C@@H]1CSSC[C@@H]2NC(=O)[C@H](CCC(=O)O)NC(=O)[C@H](CC(N)=O)NC(=O)[C@H](CCCCN)NC(=O)CNC(=O)[C@@H]3CCCN3C(=O)[C@H]([C@@H](C)O)NC(=O)[C@@H]3CSSC[C@H](NC(=O)[C@H](C)NC(=O)[C@H](Cc4ccc(O)cc4)NC(=O)[C@H](CC(N)=O)NC(=O)[C@@H]4CCCN4C(=O)[C@H](CSSC[C@H](NC(=O)CN)C(=O)N[C@@H](CCCCN)C(=O)NCC(=O)N[C@@H](Cc4ccccc4)C(=O)NCC(=O)N[C@@H](CC(=O)O)C(=O)N[C@@H](CO)C(=O)N3)NC2=O)C(=O)N[C@@H](CO)C(=O)N[C@@H](CO)C(=O)N[C@@H](CCCCN)C(=O)N[C@@H](CC(C)C)C(=O)N[C@@H](CCCCN)C(=O)N[C@@H](Cc2c[nH]c3ccccc23)C(=O)N1)C(C)C)C(N)=O [H26L],3000 ± 632
2,CC(C)C[C@H](NC(=O)[C@H](Cc1ccc(O)cc1)NC(=O)[C@@H](NC(=O)[C@H](CCCCN)NC(=O)[C@@H]1CSSC[C@@H]2NC(=O)[C@H](CCC(=O)O)NC(=O)[C@H](CC(N)=O)NC(=O)[C@H](CCCCN)NC(=O)CNC(=O)[C@@H]3CCCN3C(=O)[C@H]([C@@H](C)O)NC(=O)[C@@H]3CSSC[C@H](NC(=O)[C@H](C)NC(=O)[C@H](Cc4ccc(O)cc4)NC(=O)[C@H](CC(N)=O)NC(=O)[C@@H]4CCCN4C(=O)[C@H](CSSC[C@H](NC(=O)CN)C(=O)N[C@@H](CCCCN)C(=O)NCC(=O)N[C@@H](Cc4ccccc4)C(=O)NCC(=O)N[C@@H](CC(=O)O)C(=O)N[C@@H](CO)C(=O)N3)NC2=O)C(=O)N[C@@H](CO)C(=O)N[C@@H](CO)C(=O)N[C@@H](CCCNC(=N)N)C(=O)N[C@@H](Cc2c[nH]cn2)C(=O)N[C@@H](CCCCN)C(=O)N[C@@H](Cc2c[nH]c3ccccc23)C(=O)N1)C(C)C)C(N)=O [K25R],946 ± 154
3,CC(C)C[C@H](NC(=O)[C@H](Cc1ccc(O)cc1)NC(=O)[C@@H](NC(=O)[C@H](CCCCN)NC(=O)[C@@H]1CSSC[C@@H]2NC(=O)[C@H](CCC(=O)O)NC(=O)[C@H](CC(N)=O)NC(=O)[C@H](CCCCN)NC(=O)CNC(=O)[C@@H]3CCCN3C(=O)[C@H]([C@@H](C)O)NC(=O)[C@@H]3CSSC[C@H](NC(=O)[C@H](C)NC(=O)[C@H](Cc4ccc(O)cc4)NC(=O)[C@H](CC(N)=O)NC(=O)[C@@H]4CCCN4C(=O)[C@H](CSSC[C@H](NC(=O)CN)C(=O)N[C@@H](CCCCN)C(=O)NCC(=O)N[C@@H](Cc4ccccc4)C(=O)NCC(=O)N[C@@H](CC(=O)O)C(=O)N[C@@H](CO)C(=O)N3)NC2=O)C(=O)N[C@@H](CO)C(=O)N[C@@H](CO)C(=O)N[C@@H](CCCCN)C(=O)N[C@@H](Cc2c[nH]cn2)C(=O)N[C@@H](CCC(N)=O)C(=O)N[C@@H](Cc2c[nH]c3ccccc23)C(=O)N1)C(C)C)C(N)=O [K27Q],622 ± 138
4,CC(C)[C@H](NC(=O)[C@H](CCCCN)NC(=O)[C@@H]1CSSC[C@@H]2NC(=O)[C@H](CCC(=O)O)NC(=O)[C@H](CC(N)=O)NC(=O)[C@H](CCCCN)NC(=O)CNC(=O)[C@@H]3CCCN3C(=O)[C@H]([C@@H](C)O)NC(=O)[C@@H]3CSSC[C@H](NC(=O)[C@H](C)NC(=O)[C@H](Cc4ccc(O)cc4)NC(=O)[C@H](CC(N)=O)NC(=O)[C@@H]4CCCN4C(=O)[C@H](CSSC[C@H](NC(=O)CN)C(=O)N[C@@H](CCCCN)C(=O)NCC(=O)N[C@@H](Cc4ccccc4)C(=O)NCC(=O)N[C@@H](CC(=O)O)C(=O)N[C@@H](CO)C(=O)N3)NC2=O)C(=O)N[C@@H](CO)C(=O)N[C@@H](CO)C(=O)N[C@@H](CCCCN)C(=O)N[C@@H](Cc2c[nH]cn2)C(=O)N[C@@H](CCCCN)C(=O)N[C@@H](Cc2c[nH]c3ccccc23)C(=O)N1)C(=O)N[C@@H](Cc1ccc(O)cc1)C(=O)N[C@@H](Cc1ccccc1)C(N)=O [L33F],148 ± 17
5,CC(C)C[C@H](NC(=O)[C@H](CC(C)C)NC(=O)[C@@H](NC(=O)[C@H](CCCCN)NC(=O)[C@@H]1CSSC[C@@H]2NC(=O)[C@H](CCC(=O)O)NC(=O)[C@H](CC(N)=O)NC(=O)[C@H](CCCCN)NC(=O)CNC(=O)[C@@H]3CCCN3C(=O)[C@H]([C@@H](C)O)NC(=O)[C@@H]3CSSC[C@H](NC(=O)[C@H](C)NC(=O)[C@H](Cc4ccc(O)cc4)NC(=O)[C@H](CC(N)=O)NC(=O)[C@@H]4CCCN4C(=O)[C@H](CSSC[C@H](NC(=O)CN)C(=O)N[C@@H](CCCCN)C(=O)NCC(=O)N[C@@H](Cc4ccccc4)C(=O)NCC(=O)N[C@@H](CC(=O)O)C(=O)N[C@@H](CO)C(=O)N3)NC2=O)C(=O)N[C@@H](CO)C(=O)N[C@@H](CO)C(=O)N[C@@H](CCCCN)C(=O)N[C@@H](Cc2c[nH]cn2)C(=O)N[C@@H](CCCCN)C(=O)N[C@@H](Cc2c[nH]c3ccccc23)C(=O)N1)C(C)C)C(N)=O [Y32L],441 ± 74
6,CC(C)C[C@H](NC(=O)[C@H](Cc1c[nH]c2ccccc12)NC(=O)[C@@H](NC(=O)[C@H](CCCCN)NC(=O)[C@@H]1CSSC[C@@H]2NC(=O)[C@H](CCC(=O)O)NC(=O)[C@H](CC(N)=O)NC(=O)[C@H](CCCCN)NC(=O)CNC(=O)[C@@H]3CCCN3C(=O)[C@H]([C@@H](C)O)NC(=O)[C@@H]3CSSC[C@H](NC(=O)[C@H](C)NC(=O)[C@H](Cc4ccc(O)cc4)NC(=O)[C@H](CC(N)=O)NC(=O)[C@@H]4CCCN4C(=O)[C@H](CSSC[C@H](NC(=O)CN)C(=O)N[C@@H](CCCCN)C(=O)NCC(=O)N[C@@H](Cc4ccccc4)C(=O)NCC(=O)N[C@@H](CC(=O)O)C(=O)N[C@@H](CO)C(=O)N3)NC2=O)C(=O)N[C@@H](CO)C(=O)N[C@@H](CO)C(=O)N[C@@H](CCCCN)C(=O)N[C@@H](Cc2c[nH]cn2)C(=O)N[C@@H](CCCCN)C(=O)N[C@@H](Cc2c[nH]c3ccccc23)C(=O)N1)C(C)C)C(N)=O [Y32W],277 ± 43
